Key:
Test in all cases: Proliferation inhibition, CellTiter-Glo
A101D = conditions: read-out: A101D Prolif. EC50; Table D-1; 3 days
Protocol: (§1) All cancer cell lines (A375, A101D, A2058, RKO, HT29 SK-MEL 30, IPC298, HepG2, HCT-116, Lovo, SW620, SW480, NCI-H358, NCI-H2122, Calu-6, NCIH2087, NCIH1755, NCIH1666 and Mewo) were obtained from ATCC and cultured in RPMI-1640 medium (Gibco) supplemented with 5% heat inactivated fetal bovine serum (FBS, Wisent) at 37° C. under 5% CO2. Cells were maintained in T175 flasks (Greiner). They were passaged by removing the culture medium, washing once in 10 mL of room temperature Phosphate Buffered Saline (PBS; Wisent) and incubating at 37° C. with 2 mL of 0.05% Trypsin (Thermo-Fisher). Trypsin was then inactivated by adding complete growth medium and the cells were then replated in a T175 culture dish at the appropriate dilution. All cell lines were routinely tested for mycoplasma contamination. Tissue type and mutational status of each cell line can be found in Table B.
(§2) CellTiter-Glo® viability analysis was conducted on cells plated in […] of complete RPMI-1640 growth medium in 96-well flat-bottomed white opaque plates (Greiner or Corning) at a density indicated in Table E (for each CCL, number of cells plated per well of a 96-well plate to perform the CellTiter-Glo® cell viability assay). The cell density in cells/cm^2 would correspond to cell number divided by the area of one well of a 96-well plate (0.32 cm^2). Cells were maintained overnight at 37° C. under 5% CO2 before treatment with compounds' dilution series for 3 days.
(§3) In a dilution series 100 μL/well of test substance dilution prepared in complete RPMI-1640 growth media was added to the cells plated initially in 100 μL of growth media. The dilution series is selected so that ten concentrations cover a range from 30 μM or 10 μM to […]. If necessary (as in the case of A375 cells, which were more sensitive to the compounds) the initial concentration of 10 μM is lowered to 1 μM and further dilution is carried out accordingly. The final concentration of DMSO in the assay is set to 0.5%.
(§4) After 3 days of incubation, the growth media were removed by aspiration and 60 μL of diluted CellTiter-Glo® reagent (10 μL CellTiter-Glo® reagent+50 μL of PBS) was added to each well. Cells were allowed to lyse and to equilibrate in CellTiter-Glo® reagent by 5 min incubation on a plate shaker followed by 10 min incubation at room temperature. Luminescence signals were then acquired on a Synergy Neo2 plate reader (Biotek).
(§5) The effect of each compound dilution on the proliferation of cancer cell lines was expressed in % inhibition and calculated as follows. An internal 100% inhibition control (1 μM of trametinib; cat. No. HY-10999; MedChem Express; CAS No. 871700-17-3) was included in each plate and used as a measure of CellTiter-Glo® signal background. The value obtained for trametinib was subtracted from each data point. The average of DMSO (vehicle) controls (set as 0% inhibition) was established and used to calculate % inhibition:
(§6) The ability of each compound to inhibit proliferation was expressed as a EC50 value obtained by plotting the effect values for each data point of a dilution series and fitting the obtained curves using a log(agonist) versus response−variable slope (four parameters) function using GraphPadPrism (V7.0) or Dotmatics Screening Ultra platform.

HepG2 = conditions: read-out: HepG2 Prolif. EC50; Table D-1; 3 days
Protocol: as §1, §2, §3, §4, §5, §6

HT-29 = conditions: read-out: HT-29 Prolif. EC50; Table D-1; 3 days
Protocol: as §1, §2, §3, §4, §5, §6

A2058 = conditions: read-out: A2058 Prolif. EC50; Table D-1; 3 days
Protocol: as §1, §2, §3, §4, §5, §6

Calu6 = conditions: read-out: Calu6 Prolif. EC50; Table D-2; 3 days
Protocol: as §1, §2, §3, §4, §5, §6

RKO = conditions: read-out: RKO Prolif. EC50; Table D-1; 3 days
Protocol: as §1, §2, §3, §4, §5, §6

A375 = conditions: read-out: A375 Prolif. EC50; Table D-1; 3 days
Protocol: as §1, §2, §3, §4, §5, §6

O=S(=O)(Nc1ccc(F)c(Nc2ncnc3cnc(-n4cnc5c(N6CCC(O)(C(F)(F)F)CC6)cccc54)nc23)c1F)c1cccc(Cl)c1Cl
EC50 (A101D): < 0.3 µM | EC50 (HepG2): < 0.3 µM | EC50 (HT-29): < 0.3 µM | EC50 (A2058): < 0.3 µM | EC50 (Calu6): < 0.3 µM | EC50 (RKO): < 0.3 µM | EC50 (A375): < 0.3 µM

COc1ccc(S(=O)(=O)Nc2ccc(F)c(Nc3ncnc4cnc(-n5cc(S(=O)(=O)N(C)CCN(C)C)c6ccccc65)nc34)c2F)c(C)c1Cl
EC50 (A101D): < 0.3 µM | EC50 (HepG2): < 0.3 µM | EC50 (HT-29): < 0.3 µM | EC50 (A2058): < 0.3 µM | EC50 (Calu6): 0.3 to 3 µM | EC50 (RKO): < 0.3 µM | EC50 (A375): < 0.3 µM
